Experimental data reported in patent publication US10065941B2, “Aminotriazine derivative and pharmaceutical composition comprising the same” (Shionogi & Co., Ltd., priority 2013, dated 2018).

The chains behind the UniProt entries cited, without tags or fusion partners. Where a name states a change or a piece, a line headed by the entry shows the natural chain unless it says otherwise.
UniProt P56373: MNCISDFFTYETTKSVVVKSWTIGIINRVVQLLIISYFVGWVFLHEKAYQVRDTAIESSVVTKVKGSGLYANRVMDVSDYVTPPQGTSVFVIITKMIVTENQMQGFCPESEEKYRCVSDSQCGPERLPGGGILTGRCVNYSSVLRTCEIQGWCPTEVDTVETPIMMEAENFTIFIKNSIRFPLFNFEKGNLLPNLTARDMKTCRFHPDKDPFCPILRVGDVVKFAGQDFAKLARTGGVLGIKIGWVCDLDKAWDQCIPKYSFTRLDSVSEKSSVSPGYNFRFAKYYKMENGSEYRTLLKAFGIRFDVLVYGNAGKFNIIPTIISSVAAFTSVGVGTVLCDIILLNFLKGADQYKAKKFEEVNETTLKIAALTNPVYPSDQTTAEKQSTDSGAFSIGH

Molecular target: human P2X3 receptor (Homo sapiens (Human), UniProt P56373)
Test: Evaluation of human P2X3 receptor inhibitory activity (Test Example 1)
Assay type: cell-based
Conditions: C6BU-1 cell transfected with human P2X3 receptor gene, FLIPR 384
Procedure: Stably expressing cell line (C6BU-1 cell transfected with human P2X3 receptor gene (GenBank accession number Y07683) was used. The cells were seeded in a 384-well PDL-coated microtiter plate at a concentration of 3000 cells/well and cultured in the medium (8.3% fetal bovine serum, 8.3% horse serum, and 1% antibiotic and antifungal in DMEM) for one day at 37° C. under 5% carbon dioxide atmosphere. The medium was replaced with 4 μM Fluo-3-AM solution (20 mM HEPES, 137 mM NaCl, 2.7 mM KCl, 0.9 mM MgCl2, 5.0 mM CaCl2, 5.6 mM D-glucose, 2.5 mM probenecid, 0.5% BSA, and 0.04% Pluronic F-127, pH 7.5) and incubated at 37° C. under 5% dioxide carbon atmosphere for one hour. The plate was washed with washing buffer (20 mM HEPES, 137 mM NaCl, 2.7 mM KCl, 0.9 mM MgCl2, 5.0 mM CaCl2, 5.6 mM D-glucose, 2.5 mM probenecid, pH7.5), and each well was added with 20 μL of the washing buffer. The plate was placed in High-Throughput Screening System FLIPR 384 (Molecular Device Co.). Measurement of fluorescence intensity by FLIPR 384 was started, and 20 μL of DMSO solutions containing different concentrations of the test compound as prepared by dilution with dilution buffer (20 mM HEPES, 137 mM NaCl, 2.7 mM KCl, 0.9 mM MgCl2, 5.0 mM CaCl2, 5.6 mM D-glucose, 2.5 mM probenecid, 0.1% Pluronic F-127, pH7.5) were dispensed to each well through the built-in automatic dispenser. Five minutes after, 150 nM ATP solution (25 μL) prepared by dilution with the dilution buffer was dispensed through the built-in automatic dispenser, and the measurement of fluorescence intensity was continued for 4 min. For each well, the specific maximum fluorescence intensity was calculated as the ratio of the maximum fluorescence intensity after addition of the ATP solution to the fluorescence intensity at the starting of the measurement. […] The specific maximum fluorescence intensity and IC50 were calculated using Spotfire (Science & Technology Systems, Inc.)

[2H]C([2H])([2H])c1ccc(Cn2c(=O)n(C[C@H](C)C(=O)OC)c(=O)[nH]/c2=N\c2ccc(Oc3ccc(C)nc3)cc2)cc1 [Compound R-209]
IC50: 5 nM

[2H]C([2H])([2H])c1ccc(Cn2c(=O)n(C[C@H](C)C(=O)O)c(=O)[nH]/c2=N\c2ccc(Oc3ccc(C)nc3)cc2)cc1 [Compound R-210]
IC50: 6 nM

COC(=O)[C@@H](C)Cn1c(=O)[nH]/c(=N\c2ccc(Oc3ccc(F)cn3)cc2)n(Cc2ccc(C)cc2)c1=O [Compound I-036]
IC50: 5 nM
